This series is described as follows: Cmax of other small molecule drugs in plasma, preparation versus original drug solution (Experimental Example 7). To be noted: male, Sprague-Dawley (SD), rat, in vivo, sc.

With `Cc1nc2n(c(=O)c1CCN1CCC(c3noc4cc(F)ccc34)CC1)CCCC2` [Risperidone], the Cmax (commonly the highest concentration seen after dosing) turned out to be 340 ± 40 ng/mL.
